Reference: patent publication US20090061024A1, “COMPOSITIONS AND METHODS EMPLOYING NMDA ANTAGONISTS FOR ACHIEVING AN ANESTHETIC-SPARING EFFECT” (Wyeth, priority 2007, published 2009)

Columns and labels:
[1] = system: dogs anesthetized with isoflurane; assay: Isoflurane MAC after perzinfotel by IV, SQ, IM routes, with or without butorphanol (Example 3, Latin square crossover); conditions: for Mean MAC during isoflurane anesthesia, 1st MAC: n = 6 dogs
[2] = system: dogs anesthetized with isoflurane; assay: Hemodynamic and respiratory parameters, concurrent with MAC determinations (Example 1); format: in vivo; conditions: IV perzinfotel 5 mg/kg, 1st
[3] = system: dogs anesthetized with isoflurane; conditions: dog, in vivo

**Q.** With `O=c1c2c(c1=O)N(CCP(=O)(O)O)CCCN2` [Perzinfotel, [2-(8,9-dioxo-2,6-diazabicyclo[5.2.0]non-1-(7)-en-2-yl)ethyl]phosphonic acid] as the compound, how does the “Mean MAC during isoflurane anesthesia, 1st MAC” value ([1]; Treatment A: 20 mg/Kg IV) read?
**A.** 0.65%

**Q.** And the “MAC change versus CTRL, 1st MAC” value ([1]; Treatment C: 20 mg/Kg IM)?
**A.** −38%

**Q.** And the “MAC change versus CTRL, 2nd MAC” value ([1]; Treatment C: 20 mg/Kg IM, 2nd MAC)?
**A.** −38%

**Q.** What about the “MAC change versus CTRL, 1st MAC” value ([1]; Treatment E: 30 mg/Kg IM) of the same compound?
**A.** −44%

**Q.** And the “Mean MAC during isoflurane anesthesia, 1st MAC” value ([1]; Treatment E: 30 mg/Kg IM)?
**A.** 0.63%

**Q.** What about the MAP [2] of the same compound?
**A.** 90 mm Hg

**Q.** And the “Mean MAC of isoflurane required to maintain anesthesia, 1st” value [3]?
**A.** 0.87

**Q.** And the “Mean MAC of isoflurane required to maintain anesthesia, 2nd” value [3]?
**A.** 0.87

**Q.** What about the “Mean MAC of isoflurane required to maintain anesthesia, Avg.” value [3] of the same compound?
**A.** 0.87
